This is an account of results in patent US20130039998A1, “COMPOSITIONS OF MODULATORS OF THE WNT/BETA-CATENIN PATHWAY AND BENZAMIDE AND/OR HYDROXAMIC ACID DERIVATIVES TO TREAT BIPOLAR DISORDER” (UNIVERSITY OF WASHINGTON, priority 2008, published 2013).

The chains behind the UniProt entries cited, without tags or fusion partners. Where a name states a change or a piece, a line headed by the entry shows the natural chain unless it says otherwise.
UniProt O15379: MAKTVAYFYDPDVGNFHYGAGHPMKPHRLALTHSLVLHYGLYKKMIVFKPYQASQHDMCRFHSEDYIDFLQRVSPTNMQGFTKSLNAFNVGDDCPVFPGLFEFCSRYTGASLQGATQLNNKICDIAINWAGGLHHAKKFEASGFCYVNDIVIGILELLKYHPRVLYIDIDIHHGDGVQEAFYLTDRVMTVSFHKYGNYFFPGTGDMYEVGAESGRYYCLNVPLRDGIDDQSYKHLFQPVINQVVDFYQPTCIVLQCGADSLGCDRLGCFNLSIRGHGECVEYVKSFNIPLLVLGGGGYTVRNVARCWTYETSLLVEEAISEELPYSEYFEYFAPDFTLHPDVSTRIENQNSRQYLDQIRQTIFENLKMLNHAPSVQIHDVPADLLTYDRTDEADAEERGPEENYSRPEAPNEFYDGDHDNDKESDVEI

Structures are written as SMILES.

The subject of experiment [1] is pfuBARS control reporter (non-functional TCF elements), HEK-293T cells.
Experiment [2] deals with HDAC3 (Homo sapiens, UniProt O15379). Description: biochemical.

Take `O=C(CCCCCCC(=O)Nc1ccccc1)NO` [SAHA]: the “activity in pfuBARS control reporter, compound alone” value in experiment [1] (alone) is reported as “no activity”. Also, the “activity in pfuBARS control reporter in the presence of lithium” value in experiment [1] (in the presence of lithium) was “no activity”.

The IC50 is the concentration that inhibits the measured activity by half. In experiment [2], `CCCC(CCC)C(=O)O` [valproate] yielded an IC50 of 130 µM.
